Test results from patent US20140234420A1, “Method of Treating Skin Disorders using Nanoscale Delivery Devices and Transdermal Enhancing Compositions” (priority 2008, published 2014).

Assay: Size, polydispersity index and zeta potential determination (Malvern Zetasizer)
Assay type: physicochemical
Details: compound encapsulated in zein core-shell particles
Procedure: Nanoparticles (2 mg) and micelles (2 mg) were dispersed in 2 ml of purified water and bath sonicated for 1 min. They were then centrifuged at 10000 rpm for 5 min and diluted 50 times with distilled water. About 50 μl of the nanoemulsion was taken and dilated to 1 mL using distilled water. A liposome dispersion was diluted 100 times using purified water and probe sonicated for 1 min using 20% amplitude. The sizes, polydispersity indexes, and zeta potentials, were measured with a Malvern Zetasizer.
Nanoparticles (2 mg) were dispersed in 1 ml of purified water and probe sonicated for 1 min using 20% amplitude. Subsequently, the sonicated particles were diluted 10 times with distilled water and properties were measured using a Malvern Zetasizer.
Size, polydispersity index and zeta potential determination: nanoparticles (50 μl), nanoemulsions (squalene) (50 μl) and nanomicelles (2 mg) were dispersed in 2 ml of purified water separately, vortex for 1 min. Further, the size, polydispersity index and zeta potential were measured with a Malvern Zetasizer.

Particle Size: 173 ± 20 nm
Compound: O=c1ccc2ccccc2o1 [Coumarin, coumarin]
